Source: PubChem (Broad Institute)
CAL PDZ FP-1 = blocks peptide binding to human CAL PDZ domain; Q9HD26; purified CAL PDZ, TMR-peptide fluorescence polarization, 1 h; inhibition, % at 20 µM; 330,000 compounds, 0.02% hits;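 active = highest replicate inhibition of at least 40%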
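Material: tagged CAL PDZ protein CerCALP, purified; buffer or medium: sodium phosphate/NaCl buffer pH 7.4 with TCEP, IgG, Thesit; also added: fluorescent TMR peptide probe; schedule: 1 h incubation at room temperature before polarization reading; technique: fluorescence polarization from S- and P-plane intensities, G-factor corrected; control set: unlabelled peptide and DMSO controls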
DYRK1A inh = blocks rat Dyrk1A kinase activity | Q63470 | ADP-Glo luminescence, NFATc1 peptide | inhibition, % at 12.5 µM | 310,000 compounds, 0.43% hits; in the data active = inhibition above about 50%
CAL PDZ FP-2 = blocks peptide binding to the human CAL PDZ domain; Q9HD26; purified CAL PDZ, TMR-peptide fluorescence polarization, 1 h; inhibition, % at 24.9 µM; 300,000 compounds, 0.92% hits;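 active = mean inhibition of at least 30% with at least half of replicates also reaching 30%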
UUG fidelity = alters start codon recognition fidelity in yeast | S. cerevisiae UUG-firefly luciferase reporter, luminescence/redox ratio | activity score, % at 18.7 µM | 350,000 compounds, 0.13% hits | AID 602363;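 active = replicate mean at a twofold rise or more, about +100% in these data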;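 note: firefly luciferase made from a UUG start codon reports start codon fidelity; reporter light over untreated wells divided by growth signal over untreated wells; some hits fall short of that in this replicate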
CDK5 inh = CDK5/p35 (human) kinase inhibition; inhibition, % at 10 µM; Recombinant CDK5/p35, ADP-Glo luminescence, 60 min; AID 488839; 330,000 compounds, 0.01% hits;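 active = highest replicate inhibition of at least 50% and at least 75% of replicates reaching 50%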
dFosB activator = mouse delta FosB homodimer activation. purified delta FosB, TAMRA-CDK5 oligo fluorescence polarization; percent of positive-control signal above neutral wells. activation, % at 25 µM. 340,000 compounds, 0.99% hits. AID 493131;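 active = mean activation above about 17%, with every replicate also reaching it, limit read from the data, passing the limit was not always enough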
Numbers stand for hits; i = inactive; nt = no result. In the library only some 1.7% were active in any assay of this set; here they are far more common.

SMILES | CAL PDZ FP-1 | DYRK1A inh | CAL PDZ FP-2 | UUG fidelity | CDK5 inh | dFosB activator
O=C(C1CCC(=O)N(C2CCCCCC2)C1)N1CCN(c2ccccc2Cl)CC1 (configuration not stated) | i | i | i | i | i | i
C[C@@H]1CCCCO[C@@H](CN(C)CC2CCCCC2)[C@@H](C)CN([C@@H](C)CO)C(=O)c2cc(NC(=O)NC3CCCCC3)ccc2O1 | nt | nt | nt | i | nt | nt
C[C@@H]1CN([C@@H](C)CO)C(=O)c2cc(C#CCN(C)C)cnc2O[C@@H]1CN(C)Cc1ccncc1 | nt | nt | nt | i | nt | nt
CCOCc1cc(=O)[nH]c(SC)n1 | i | i | 70 | i | i | i
Cc1nn2c(-c3ccccc3)nnc2c2ccccc12 | nt | i | i | i | i | i
Cc1nn2c3ccccc3nc2c2ccccc12 | 43 | i | nt | i | i | i
C[C@H]1CN([C@@H](C)CO)C(=O)c2cc(NS(=O)(=O)c3ccc(Cl)cc3)ccc2O[C@H]1CN(C)C | nt | nt | nt | i | nt | nt
CCCN(C)C[C@@H]1Oc2ncc(C#CC3(O)CCCC3)cc2C(=O)N([C@H](C)CO)C[C@@H]1C | nt | nt | nt | i | nt | nt
c1ccc(N/N=C(\Cc2nc3ccccc3[nH]2)c2ccccc2)cc1 | i | i | i | i | i | i
N/N=C(/Cc1nc2ccccc2[nH]1)c1ccc([N+](=O)[O-])cc1 | i | i | 73 | nt | i | i
CCCNC(=O)C[C@H]1CC[C@@H]2[C@H](COc3ccc(NC(=O)c4ccc(Cl)cc4)cc3C(=O)N2C)O1 | nt | nt | nt | i | nt | nt
C[C@@H]1CN([C@H](C)CO)C(=O)Cc2cc(NC(=O)Nc3ccc(F)cc3)ccc2O[C@@H]1CN(C)Cc1ccncc1 | nt | nt | nt | i | nt | nt
CCN1CCN(c2c(/C=C3\SC(=S)N(Cc4ccco4)C3=O)c(C)c(C#N)c(=O)n2C)CC1 | i | i | i | nt | i | 56
Cc1cc(NS(=O)(=O)c2ccc(NC(=S)NC(=O)c3cccc(S(=O)(=O)N(C)C)c3)cc2)no1 | i | nt | 52 | i | i | i
COc1ccc(OCC(=O)Nc2ccc(S(=O)(=O)Nc3cc(C)on3)cc2)cc1 | i | i | i | i | i | i
COc1ccc(CC(=O)Nc2ccc(S(=O)(=O)Nc3cc(C)on3)cc2)cc1 | i | i | 49 | i | i | i
Cc1cc(NS(=O)(=O)c2ccc(NC(=S)NC(=O)c3ccc(F)cc3)cc2)no1 | i | i | i | i | i | i
O=C(O)c1ccc(CNC(=O)c2ccccc2NC(=O)c2ccc([N+](=O)[O-])cc2)cc1 | nt | i | 50 | nt | i | i
O=C(Nc1ccccc1C(=O)Nc1ccccn1)c1ccc([N+](=O)[O-])cc1 | i | nt | 43 | nt | i | i
COc1ccc(C(=O)Nc2ccccc2C(=O)Nc2ccccn2)cc1 | i | i | i | i | i | i
Cc1cc(C)c(/C=N/NC(=O)c2nnn(-c3nonc3N)c2CN2CCC(C)CC2)c(C)c1 | i | i | 38 | i | i | i
CCOc1ccc(/C=N/NC(=O)c2nnn(-c3nonc3N)c2CN2CCC(C)CC2)cc1 | i | i | i | i | i | i
COc1ccc(O)c(/C=N/NC(=O)c2c(C)nnn2-c2nonc2N)c1 | i | i | i | nt | i | 47
CC1CCN(Cc2c(C(=O)N/N=C/c3cc(Cl)ccc3O)nnn2-c2nonc2N)CC1 | i | i | i | i | i | 162
COc1c(Cl)cc(Cl)cc1/C=N/NC(=O)c1nnn(-c2nonc2N)c1CN1CCC(C)CC1 | i | nt | i | i | nt | i
SMILES | CAL PDZ FP-1 | DYRK1A inh | CAL PDZ FP-2 | UUG fidelity | CDK5 inh | dFosB activator
CC1CCN(Cc2c(C(=O)N/N=C/c3cc(Br)ccc3O)nnn2-c2nonc2N)CC1 | i | i | i | i | i | 134
C[C@H](CO)N1C[C@H](C)[C@H](CN(C)C(=O)c2ccccn2)Oc2ncc(C3=CCCC3)cc2C1=O | nt | nt | nt | i | nt | nt
C/C=C/c1ccc([C@H]2[C@@H](CO)N(C(=O)CC)[C@@H]2CNC(=O)CC)cc1 | nt | nt | nt | i | nt | nt
CC(=O)NC12CC3CC(C1)CC(C(=O)Nc1cccc(S(=O)(=O)N4CCCCCC4)c1)(C3)C2 | i | i | 194 | i | i | i
C[N+]1(CC(=O)OC2CCCCCCCCCCC2)CCCC1 | i | i | 97 | nt | i | i
Cc1cc(C)n(CC(=O)c2cccc([N+](=O)[O-])c2)n1 | i | nt | 36 | i | i | i
O=C(Cc1ccccc1)OCC(=O)c1cccc([N+](=O)[O-])c1 | i | i | 47 | i | i | i
